Assay results published in ChEMBL document CHEMBL4376866, “Discovery and Structure-Based Optimization of Potent and Selective WD Repeat Domain 5 (WDR5) Inhibitors Containing a Dihydroisoquinolinone Bicyclic Core” (J Med Chem, 2020).
The source made the active and inactive calls. The rule behind the calls is not given here.

Experiments:
Type in all cases: cell-based
[1] = target: T1, WD repeat-containing protein 5 (Homo sapiens, UniProt P61964); experiment: Binding affinity to WDR5 in human MV4-11 cells assessed as WDR5-RBBP5 protein interaction at 1 uM after 4 hrs by co-immunoprecipitation assay
[2] = target: T1, WD repeat-containing protein 5; experiment: Inhibition of WDR5 binding to RPS24 in human MV4-11 cells assessed as reduction in RPS24 mRNA expression at 300 nM after 3 days by qRT-PCR analysis relative to control
[3] = target: T1, WD repeat-containing protein 5; experiment: Inhibition of WDR5 binding to RPS24 in human MV4-11 cells assessed as reduction in RPL35 mRNA expression at 300 nM after 3 days by qRT-PCR analysis relative to control
[4] = target: T1, WD repeat-containing protein 5; experiment: Inhibition of WDR5 in human MV4-11 cells assessed as increase in p53 protein expression after 24 to 48 hrs by Western blot analysis
[5] = target: T1, WD repeat-containing protein 5; experiment: Inhibition of WDR5 in human MV4-11 cells assessed as increase in p21 protein expression after 24 to 48 hrs by Western blot analysis
[6] = target: T1, WD repeat-containing protein 5; experiment: Binding affinity to WDR5 WIN site in human MV4-11 cells assessed as reduction in MYC recruitment to SNHG15 E-box binding site at 600 nM after 4 hrs by chromatin immunoprecipitation assay
[7] = target: T1, WD repeat-containing protein 5; experiment: Binding affinity to WDR5 WIN site in human MV4-11 cells assessed as reduction in MYC recruitment RPS24 binding site at 600 nM after 4 hrs by chromatin immunoprecipitation assay
[8] = target: T1, WD repeat-containing protein 5; experiment: Binding affinity to WDR5 WIN site in human MV4-11 cells assessed as reduction in MYC recruitment to RPL35 binding site at 600 nM after 4 hrs by chromatin immunoprecipitation assay

In the case of `COc1cc(CN2CCc3c(cc(Cn4ccn(C)c4=N)cc3-c3ccc(F)cc3C)C2=O)cc(OC)c1`, the Activity [1] is reported as “inactive”, the fold change (FC) [2] is reported as 2 and the fold change (FC) [3] is reported as 2. The inhibition [4] was “Dose-dependent effect”, the inhibition [5] was “Dose-dependent effect” and the Activity [6] was “Active”. For the same compound, the Activity [7] was “Active” and the Activity [8] was “Active”.
